Test results published in ChEMBL document CHEMBL1126608.

Amino acid sequences for entries named in this document (tags omitted). A change or cut given only in a name is not applied to a line headed by its entry.
UniProt P08172, whole entry, looked up: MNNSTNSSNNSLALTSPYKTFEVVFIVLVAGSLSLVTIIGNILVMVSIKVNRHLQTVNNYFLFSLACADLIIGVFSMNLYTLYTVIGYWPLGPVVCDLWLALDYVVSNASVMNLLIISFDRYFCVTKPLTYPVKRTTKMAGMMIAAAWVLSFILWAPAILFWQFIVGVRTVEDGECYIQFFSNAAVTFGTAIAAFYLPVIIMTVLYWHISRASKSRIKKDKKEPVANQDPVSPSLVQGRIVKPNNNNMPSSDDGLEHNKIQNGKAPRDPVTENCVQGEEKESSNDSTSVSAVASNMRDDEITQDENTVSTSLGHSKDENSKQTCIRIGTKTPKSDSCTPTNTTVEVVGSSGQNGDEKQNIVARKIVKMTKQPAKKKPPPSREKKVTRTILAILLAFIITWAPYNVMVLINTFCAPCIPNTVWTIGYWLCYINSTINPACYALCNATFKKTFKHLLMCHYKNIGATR
UniProt P20309: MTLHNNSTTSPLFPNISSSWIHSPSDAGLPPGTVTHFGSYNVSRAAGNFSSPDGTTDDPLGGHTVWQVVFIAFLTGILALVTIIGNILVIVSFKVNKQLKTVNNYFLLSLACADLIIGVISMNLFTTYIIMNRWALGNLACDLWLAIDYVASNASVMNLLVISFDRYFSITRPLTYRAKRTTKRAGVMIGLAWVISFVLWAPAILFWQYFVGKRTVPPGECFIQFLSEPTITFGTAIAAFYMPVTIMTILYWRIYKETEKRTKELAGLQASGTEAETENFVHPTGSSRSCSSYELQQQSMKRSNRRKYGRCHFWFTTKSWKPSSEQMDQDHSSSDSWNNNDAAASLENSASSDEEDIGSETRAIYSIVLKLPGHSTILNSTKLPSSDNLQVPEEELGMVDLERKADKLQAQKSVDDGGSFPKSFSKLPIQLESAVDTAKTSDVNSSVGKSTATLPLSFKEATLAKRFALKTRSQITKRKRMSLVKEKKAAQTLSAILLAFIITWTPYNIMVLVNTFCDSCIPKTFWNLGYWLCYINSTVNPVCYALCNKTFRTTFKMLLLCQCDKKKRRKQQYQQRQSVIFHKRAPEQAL
UniProt P08173: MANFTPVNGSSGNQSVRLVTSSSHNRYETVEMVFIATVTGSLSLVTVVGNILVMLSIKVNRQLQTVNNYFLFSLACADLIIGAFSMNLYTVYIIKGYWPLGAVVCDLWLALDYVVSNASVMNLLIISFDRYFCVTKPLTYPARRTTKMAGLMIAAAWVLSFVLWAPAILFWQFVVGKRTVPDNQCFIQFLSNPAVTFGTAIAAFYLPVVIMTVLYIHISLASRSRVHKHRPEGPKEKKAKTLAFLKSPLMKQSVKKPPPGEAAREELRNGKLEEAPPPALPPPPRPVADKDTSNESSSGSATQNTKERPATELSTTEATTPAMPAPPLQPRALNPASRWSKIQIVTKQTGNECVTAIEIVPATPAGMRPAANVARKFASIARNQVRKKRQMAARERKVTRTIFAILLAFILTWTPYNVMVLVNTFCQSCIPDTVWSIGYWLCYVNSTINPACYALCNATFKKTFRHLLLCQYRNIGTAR
UniProt P11229: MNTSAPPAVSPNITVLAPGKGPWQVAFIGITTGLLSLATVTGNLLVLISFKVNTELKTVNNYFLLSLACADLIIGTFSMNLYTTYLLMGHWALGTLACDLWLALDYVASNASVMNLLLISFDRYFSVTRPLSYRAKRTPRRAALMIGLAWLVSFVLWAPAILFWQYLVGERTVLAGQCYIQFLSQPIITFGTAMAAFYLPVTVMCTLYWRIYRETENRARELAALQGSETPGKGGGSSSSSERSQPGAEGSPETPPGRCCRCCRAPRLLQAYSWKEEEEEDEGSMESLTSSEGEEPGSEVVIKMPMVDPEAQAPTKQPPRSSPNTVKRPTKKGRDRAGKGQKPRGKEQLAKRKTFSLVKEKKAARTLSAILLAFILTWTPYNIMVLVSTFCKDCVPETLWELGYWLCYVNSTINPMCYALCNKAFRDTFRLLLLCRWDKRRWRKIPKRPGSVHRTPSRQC
UniProt P08912: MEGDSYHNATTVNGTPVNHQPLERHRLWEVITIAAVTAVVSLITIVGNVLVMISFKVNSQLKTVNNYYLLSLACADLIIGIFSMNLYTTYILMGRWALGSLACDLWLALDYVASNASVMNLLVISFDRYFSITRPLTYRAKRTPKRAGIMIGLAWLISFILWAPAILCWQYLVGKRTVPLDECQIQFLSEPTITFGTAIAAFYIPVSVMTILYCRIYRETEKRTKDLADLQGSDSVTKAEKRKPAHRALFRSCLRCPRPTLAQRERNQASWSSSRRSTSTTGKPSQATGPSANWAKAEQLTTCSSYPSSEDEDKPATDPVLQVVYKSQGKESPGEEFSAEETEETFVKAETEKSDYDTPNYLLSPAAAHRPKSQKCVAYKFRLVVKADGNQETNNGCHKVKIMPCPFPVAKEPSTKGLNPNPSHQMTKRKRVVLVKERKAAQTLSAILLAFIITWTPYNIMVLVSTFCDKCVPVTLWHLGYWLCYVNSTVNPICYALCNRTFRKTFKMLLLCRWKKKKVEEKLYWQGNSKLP

Tests used:
[1] = molecular target: Muscarinic acetylcholine receptor M2 (Homo sapiens) (UniProt P08172); assay: Antagonist activity against muscarinic M2 receptor from guinea pig atria; assay type: functional; conditions: Cavia porcellus; target entry is the homologue from another species
In short: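 Isolated guinea pig right atria in Krebs-Henseleit buffer; cumulative carbachol concentration-rate response curves before and after at least three increasing antagonist concentrations (5-min preincubation). Responses as % of maximal carbachol-induced rate inhibition without antagonist.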

[2] = molecular target: Muscarinic acetylcholine receptor (Homo sapiens) (UniProt P20309+P08173+P11229+P08172+P08912); conditions: Cavia porcellus
[3] = molecular target: Muscarinic acetylcholine receptor M3 (Cavia porcellus) (UniProt Q8VH26); assay: Antagonist activity against muscarinic M3 receptor from guinea pig ileum; assay type: functional, tissue-based
In short: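 Longitudinal guinea pig ileum strips suspended in oxygenated Krebs buffer; carbachol concentration-response curves with or without at least three increasing antagonist concentrations (5-min preincubation). Contraction as % of maximal carbachol response without antagonist.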
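Throughout, for ID50: in vivo guinea pig assay: antimuscarinic effect measured as reduced salivation after carbachol stimulation.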

Compound | Kb [1] [nM] | ID50 [2] [mg/kg] | Kb [3] [nM]
CCN1CCN(CC(=O)C(O)(c2ccccc2)C2CCC2)CC1 (stereo unspecified) | 223 | 2.06 | 124
C#CCN1CCN(CC(=O)C(O)(c2ccccc2)C2CCC2)CC1 (stereo unspecified) | > 30000 | 46.9 | 536
